Test results published in patent US6900021B1, “Microfluidic system and methods of use” (The University of Alberta, priority 1997, dated 2005).

Tests used:
Assay type in all cases: cell-based
E-selectin [1] = target: T1, E-selectin (Homo sapiens, UniProt P16581); assay: Cell rolling assay with undiluted human blood, E-selectin coated device; conditions: fresh solution of 1000 μg/ml; heparinated whole human blood; HCRIVc device
T1 sequence (P16581 22-610): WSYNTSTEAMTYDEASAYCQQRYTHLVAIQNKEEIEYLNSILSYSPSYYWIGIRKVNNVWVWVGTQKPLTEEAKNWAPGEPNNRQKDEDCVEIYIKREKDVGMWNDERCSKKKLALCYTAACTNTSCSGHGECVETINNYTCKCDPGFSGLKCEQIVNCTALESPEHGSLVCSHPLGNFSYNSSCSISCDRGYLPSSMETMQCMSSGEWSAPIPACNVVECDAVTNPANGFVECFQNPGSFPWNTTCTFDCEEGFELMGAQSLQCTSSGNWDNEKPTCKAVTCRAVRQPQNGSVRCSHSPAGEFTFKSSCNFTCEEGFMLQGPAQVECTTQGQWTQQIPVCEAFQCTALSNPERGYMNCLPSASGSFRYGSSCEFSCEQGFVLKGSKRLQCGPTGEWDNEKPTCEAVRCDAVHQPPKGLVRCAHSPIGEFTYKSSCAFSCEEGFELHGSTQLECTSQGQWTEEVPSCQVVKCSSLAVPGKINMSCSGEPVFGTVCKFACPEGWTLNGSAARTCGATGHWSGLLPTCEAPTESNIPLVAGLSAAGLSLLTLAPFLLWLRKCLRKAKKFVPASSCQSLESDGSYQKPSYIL
Protocol: Undiluted whole human blood was used in the cell rolling assay described in Example VII above.
This device was previously coated either P-selectin or E-selectin as described above. 50 μl heparinated whole human blood (1 mg/ml heparin was added to the blood) was introduced into the first reservoir of the “Y” shape device shown in FIG. 12. The human blood was moved from the reservoir into the channel by a syringe pump at optimum flow rate for the device (see Table II) and the main flow channel, about 1-2 cm from intersection of “Y”, was observed under the microscope for 15 minutes.
50 μl of a mixture of inhibitor and heparinated blood was placed into the second reservoir and introduced into the channel for 3-10 minutes. The length of time required to inhibit the rolling of the leukocytes in the whole blood depended upon the inhibitor studied.

E-selectin [2] = target: T1, E-selectin; assay: Cell rolling of neutrophils on E-selectin coated microchip; conditions: fresh solution of 1000 μg/ml
Protocol: In preparation for cell rolling, the channels were coated with the desired selectin by methods similar to those set forth in Example VII.
To study cell rolling, two reservoirs leading to one channel were filled with cells. The contents of both the first and second reservoir (cells only) were drawn into the channel and cell rolling was observed.
A second HCRIVa microchip was coated with 20 μg/ml E-selectin as described in Example VII and incubated for two hours. Isolated human neutrophils were moved through the rolling microchip with a flow rate of 10 μl/min. (approx. 800/cm shear rate=40 dynes/cm^2 shear force). […] In the first run the anti-E-selectin antibody was added to the right reservoir at approximately 1:54:42 and in the second run, the anti-E-selectin antibody was added to the right reservoir at approximately 0:39:30.

P-selectin = target: T2, P-selectin (Homo sapiens, UniProt P16109); assay: Cell rolling assay with undiluted human blood, P-selectin coated device; conditions: fresh solution of 1000 μg/ml; heparinated whole human blood; HCRIVc device
T2 sequence (P16109 42-830): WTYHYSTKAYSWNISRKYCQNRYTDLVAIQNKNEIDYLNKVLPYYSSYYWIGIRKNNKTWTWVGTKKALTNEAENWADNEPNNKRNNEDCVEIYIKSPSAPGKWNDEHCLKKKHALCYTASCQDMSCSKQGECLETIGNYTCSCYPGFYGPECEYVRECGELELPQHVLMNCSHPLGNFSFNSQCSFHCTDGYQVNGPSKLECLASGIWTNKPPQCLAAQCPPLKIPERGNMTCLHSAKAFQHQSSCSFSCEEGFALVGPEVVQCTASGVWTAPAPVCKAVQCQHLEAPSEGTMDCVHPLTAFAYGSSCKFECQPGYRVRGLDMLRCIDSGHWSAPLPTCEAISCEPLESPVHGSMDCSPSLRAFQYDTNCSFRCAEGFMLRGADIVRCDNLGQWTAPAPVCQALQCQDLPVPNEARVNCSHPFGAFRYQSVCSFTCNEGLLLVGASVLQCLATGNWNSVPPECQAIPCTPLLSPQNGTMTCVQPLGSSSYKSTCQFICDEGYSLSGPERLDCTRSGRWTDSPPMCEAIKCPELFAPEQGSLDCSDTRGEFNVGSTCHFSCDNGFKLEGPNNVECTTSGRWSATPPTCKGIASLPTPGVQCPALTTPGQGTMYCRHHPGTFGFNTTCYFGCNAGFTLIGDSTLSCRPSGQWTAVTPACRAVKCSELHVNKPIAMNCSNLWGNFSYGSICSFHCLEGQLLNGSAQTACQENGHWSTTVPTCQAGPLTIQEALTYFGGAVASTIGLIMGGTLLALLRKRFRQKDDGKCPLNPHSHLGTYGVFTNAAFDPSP

sialyl Lewis^x
inhibition of leukocyte rolling in whole blood in the presence of E-selectin (E-selectin [1]): inhibited leukocyte rolling instantaneously
inhibition of neutrophil rolling in the presence of E-selectin (E-selectin [2]): inhibited rolling instantaneously
inhibition of leukocyte rolling in whole blood in the presence of P-selectin (P-selectin): inhibited leukocyte rolling instantaneously
